System: MCF7 breast cancer cells
Details: metabolite formed from cyclophosphamide by CYP3A4 in solgel matrices

4-hydroxycyclophosphamide
toxicity to MCF7 breast cancer cells: toxic
